PDI turbidity – blocks human protein disulfide isomerase activity. P07237. PDI insulin aggregation turbidity, A650, 90 min. inhibition, % at 10 µM. 0.052% of 350,000 active. AID 588391;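 active = mean inhibition across replicates of 30% or more, whatever share of single replicates reach that level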
NR1D1 modulator – Rev-erb alpha (human) modulation. P20393. Rev-erbα–FITC-DNA binding, fluorescence polarization, 90 min. activity, % at 10 µM. 0.79% of 370,000 active. AID 1259318;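 active = activity above about 14%, limit read from the data; passing the limit was not always enough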;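 also: 0% = DMSO wells with 35 nM protein and 100% = DMSO wells with 750 nM protein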
ERp5 block – blocks human ERp5 reductase activity on insulin. AID 651711. inhibition, % at 9.99 µM. 0.05% of 350,000 active. Q15084. ERp5 insulin aggregation, absorbance 650 nm, 90 min;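 active = mean replicate inhibition above about 25%, with every replicate also reaching it, limit read from the data, passing the limit was not always enough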
SMARCA2 act – SMARCA2 function activation, primary screen; MG213 cells, MMTV-luciferase reporter, dexamethasone, overnight; activation, % at 9.1 µM; 1% of 370,000 active; AID 652017; in the data active = activation above about 7.8%;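 also: 0% = vehicle wells and 100% = reference activator wells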
GSIS activator – primary screen for activators of insulin secretion dependent on glucose, INS-1E cells, GLuc reporter luminescence; activation, % at 16.6 µM; 0.61% of 370,000 active; AID 743287; INS-1E GLuc reporter insulin secretion, 2-3 h;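 active = lowest replicate activation of at least 40%, so every replicate reaches that level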;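 also: 0% = median of neutral control wells and 100% = median of IBMX positive control wells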
UUG fidelity – alters start codon recognition fidelity in yeast | S. cerevisiae UUG-firefly luciferase reporter, luminescence/redox ratio | activity score, % at 18.7 µM | 350,000 compounds, 0.13% hits | AID 602363;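 active = replicate mean at a twofold rise or more, about +100% in these data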;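 note: firefly luciferase made from a UUG start codon reports start codon fidelity; reporter light over untreated wells divided by growth signal over untreated wells; some hits fall short of that in this replicate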
SMARCA2 act conf – SMARCA2 activation, confirmation screen; shares compounds with SMARCA2 act; MG213 cells, MMTV-luciferase with dexamethasone, luminescence, overnight; MG213 cells expressing E1A, Rb sequestered; DMSO wells 0%, reference activator 100%; activation, % at 9.1 µM; 30% of 3,500 active; AID 652260;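 active = activation above its plate's cutoff, the mean activation of tested wells plus 3 SD, cut at about 7.9% in these data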
VP16 Luc act – counter-screen for SMARCA2 activators: GAL4-VP16 luciferase reporter activation; shares compounds with SMARCA2 act; HEK293 GAL4-VP16 pG5luc reporter, luciferase luminescence; scaled: DMSO wells 0%, SAHA wells 100%; activation, % at 9.1 µM; 41% of 3,500 active;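 active = activation above the solvent-only control well mean plus 3 SD, averaged across control plates, cut at about 5.2% in these data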
* = called active by the depositor; . = not tested or not shown; ! = not confirmed by another sample. This is a sample that favours compounds with a hit; in the whole collection about 2.1% have one here.

The first 5 entries, to show the layout:
mol	PDI turbidity	NR1D1 modulator	ERp5 block	SMARCA2 act	GSIS activator	UUG fidelity	SMARCA2 act conf	VP16 Luc act
Cc1noc(C)c1S(=O)(=O)Nc1ccc2c(c1)C(=O)N([C@@H](C)CO)C[C@H](C)[C@H](CN(C)CC1CCCCC1)OCCCC[C@@H](C)O2	.	.	0.3	.	-13.0	26.7	.	.
COc1ccc(NS(=O)(=O)c2ccc(NC(=S)NC(=O)c3cccc(F)c3)cc2)nn1	-4.2	-3.3	.	8.2*	-3.9	-8.5	0.1	0.3
Cc1ccc2cccc(OCCCOc3ccccc3F)c2n1	0.2	-2.5	0.8	-2.9	-15.9	-20.6	.	.
CC(C)(C)c1ccc2cccc(F)c2n1	.	3.8	5.4	9.4*	-3.0	-14.0	-1.3	1.0
C[C@H](CO)N1C[C@H](C)[C@@H](CN(C)S(=O)(=O)c2ccc(Cl)cc2)Oc2ccc(NC(=O)Cn3cnnn3)cc2CC1=O	.	.	4.2	.	3.2	5.2	.	.

All compounds of this part (from the top)
mol	PDI turbidity	NR1D1 modulator	ERp5 block	SMARCA2 act	GSIS activator	UUG fidelity	SMARCA2 act conf	VP16 Luc act
Cc1noc(C)c1S(=O)(=O)Nc1ccc2c(c1)C(=O)N([C@@H](C)CO)C[C@H](C)[C@H](CN(C)CC1CCCCC1)OCCCC[C@@H](C)O2	.	.	0.3	.	-13.0	26.7	.	.
COc1ccc(NS(=O)(=O)c2ccc(NC(=S)NC(=O)c3cccc(F)c3)cc2)nn1	-4.2	-3.3	.	8.2*	-3.9	-8.5	0.1	0.3
Cc1ccc2cccc(OCCCOc3ccccc3F)c2n1	0.2	-2.5	0.8	-2.9	-15.9	-20.6	.	.
CC(C)(C)c1ccc2cccc(F)c2n1	.	3.8	5.4	9.4*	-3.0	-14.0	-1.3	1.0
C[C@H](CO)N1C[C@H](C)[C@@H](CN(C)S(=O)(=O)c2ccc(Cl)cc2)Oc2ccc(NC(=O)Cn3cnnn3)cc2CC1=O	.	.	4.2	.	3.2	5.2	.	.
CO[C@H]1CN(C)C(=O)c2ccc(NS(=O)(=O)CC(F)(F)F)cc2OC[C@H](C)N(C)C[C@@H]1C	.	.	-2.5	.	-3.2	.	.	.
C[C@@H]1CN([C@@H](C)CO)C(=O)Cc2cc(NS(=O)(=O)c3cn(C)cn3)ccc2O[C@H]1CN(C)Cc1ccc(C(=O)O)cc1	.	.	-3.0	.	9.5	-19.3	.	.
Cc1cc2c([nH]c3ccccc32)c2c1OC(C)(C)C=C2	.	5.9	1.7	8.3*	-5.3	-14.4	14.4*	7.9*
COc1ccc2[nH]c(=O)c3c(c2c1)OC(C)(C)C=C3	-2.4	1.6	.	-5.2	.	1.4	.	.
CC(=O)c1ccc(NC(=O)c2cc(Cl)sc2Cl)cc1	-1.3	0.7	-6.9	9.3*	-28.4	.	5.6	7.5*
CCC(=O)N(C)C[C@@H]1Oc2cc(C#Cc3ccccn3)ccc2S(=O)(=O)N([C@H](C)CO)C[C@@H]1C	.	.	-1.9	.	9.2	-1.6	.	.
COC(=O)[C@H]1[C@H](CO)[C@H]2Cn3c(ccc(C4=CCCC4)c3=O)[C@H]2N1C(=O)C1CCCC1	.	.	-0.1	.	11.1	-6.7	.	.
Clc1ccc(-c2nnc(-c3ccco3)o2)cc1	-0.7	-0.6	.	12.9*	.	-14.8	8.0*	8.3*
Cn1ccc(C(=O)N/N=C/c2c[nH]c3ccccc23)n1	-4.2	4.8	1.5	15.7*	-1.9	-4.1	8.0*	3.6
COCCN(CCOC)C(=O)c1sc2nc(-c3ccccc3)cn2c1C	-5.3	-3.2	.	2.0	.	16.0	.	.
Cc1c(C(N)=O)sc2nc(-c3ccccc3)cn12	-2.4	-1.3	.	9.9*	.	-19.4	4.6	12.8*
COc1ccc(NC(=O)c2ccccc2NC(=O)CSc2ccc(C)cc2)cc1	-14.8	6.9	4.7	1.2	2.6	-10.6	.	.
CCOC(=O)C(=O)Nc1ccccc1C(=O)Nc1ccc(OC)cc1	-2.2	2.2	0.8	9.1*	11.6	-15.1	-0.3	1.2
COc1cccc(S(=O)(=O)N[C@H]2CC[C@H](CC(=O)NCc3ccncc3)O[C@@H]2CO)c1	.	.	-4.3	.	-5.6	-15.2	.	.
Cc1cc(C)c2c(N)c(C(=O)Nc3ccc([N+](=O)[O-])cc3)sc2n1	-21.0	-32.3	-10.5	8.5*	-9.9	-14.1	5.4	10.2*
C[C@@H]1CN([C@H](C)CO)C(=O)c2cc(NC(=O)CCCN(C)C)ccc2O[C@@H](C)CCCCO[C@@H]1CN(C)C(=O)Nc1ccccc1	.	.	-3.1	.	16.8	2.0	.	.
O=C(Nc1cccc([N+](=O)[O-])c1)c1ccc([N+](=O)[O-])o1	-3.3	-6.1	-5.2	15.3*	-1.7	-15.2	19.4*	2.0
O=C(Nc1cccc(NC(=O)c2ccccc2Cl)c1)c1ccc([N+](=O)[O-])o1	-2.4	-1.8	7.5	-1.4	-0.5	-9.3	.	.
O=C(Nc1ccccn1)c1ccc([N+](=O)[O-])o1	2.9	.	.	.	.	.	.	.
NC(=O)c1ccsc1NC(=O)c1ccc([N+](=O)[O-])o1	-4.5	-10.6	0.2	8.3*	29.7	-5.4	17.6*	4.6
CC(C)(C)C(=O)N1CCN(c2ccc(NC(=O)c3ccc([N+](=O)[O-])o3)cc2)CC1	-6.7	1.0	3.4	9.8*	-17.3	-7.1	1.5	4.2
O=C(Nc1ncccn1)c1ccc([N+](=O)[O-])o1	0.4	2.3	2.8	14.7*	-1.8	.	10.0*	0.8
CCCNC(=O)N1CC2(CN(C)C2)c2c([nH]c3cc(OC)ccc23)[C@@H]1CO	.	.	.	.	14.2	.	.	.
C[C@@H]1CN([C@H](C)CO)C(=O)CCCn2nncc2CO[C@@H]1CN(C)Cc1ccccc1	.	.	1.5	.	-0.8	-3.4	.	.
COc1ccc2c3c([nH]c2c1)[C@H](CO)N(C(=O)CN(C)C)CC31CCN(Cc2ccccc2)CC1	.	.	.	.	2.7	.	.	.
CCS(=O)(=O)N[C@H]1CC[C@@H](CC(=O)Nc2ccc(-c3ccccc3)cc2)O[C@@H]1CO	.	.	0.1	.	-2.1	-9.4	.	.
CN1CCN(Cc2nc3ccccc3c(=O)n2Cc2nc(-c3ccc4ccccc4c3)cs2)CC1	43.8*!	-4.1	12.9	8.2*!	2.0	.	20.9*	0.2
CN1CCN(Cc2nc3ccccc3c(=O)n2Cc2nc(-c3cccc([N+](=O)[O-])c3)cs2)CC1	14.4	4.7	-1.2	0.6	-0.3	.	.	.
CCCNC(=O)N(C)C[C@@H]1Oc2ncc(C#C[C@@H](C)O)cc2C(=O)N([C@@H](C)CO)C[C@H]1C	.	.	-2.9	.	30.7	7.5	.	.
C/C(NC(=O)c1ccccc1)=C1/C(=O)CC2C1C2(C)C (stereo not drawn)	-7.9	1.8	.	8.0*	.	-21.5	18.8*	5.0
C[C@@H]1CN([C@H](C)CO)C(=O)Cc2cc(NC(=O)CCN3CCOCC3)ccc2O[C@@H]1CN(C)C(=O)Nc1ccc2c(c1)OCO2	.	.	10.9	.	27.3	-2.7	.	.
O=C1c2cccc3cccc(c23)C(=O)N1c1cccnc1	5.8	4.9	-2.3	8.5*	-13.3	.	-0.7	1.1
COC(=O)[C@H]1[C@H](CO)[C@H]2Cn3c(ccc(-c4ccccc4F)c3=O)[C@H]2N1CC1CCOCC1	.	.	1.5	.	-2.8	.	.	.
Cn1c(=NC(=O)c2cccc([N+](=O)[O-])c2)sc2ccccc21	-0.8	-4.8	0.3	8.7*	20.3	-12.1	6.3	13.6*
O=C(Nc1ccc(F)cc1)C(c1ccccc1)N1CCN(c2ccncc2)CC1 (stereo not drawn)	.	4.3	7.6	8.3*	-18.3	.	1.5	-0.3
COc1ccc(C(C(=O)Nc2ccc(F)cc2)N2CCN(c3ccncc3)CC2)cc1 (stereo not drawn)	.	6.7	-0.7	-1.1	-6.9	.	.	.
